Assay results published in patent US20230072790A1, “COMPOUNDS AND FORMULATIONS FOR PROTECTIVE COATINGS” (Apeel Technology, Inc., priority 2021, published 2023).

Settings: versus no sucrose stearate

increase in dispersion stability, determined by change in turbidity (sucrose stearate (Sisterna B.V.) added to 50 g/L Treatment D, blended at 80°, FIG. 14): 2 to 3 fold
increase in dispersion stability, determined by change in turbidity (sucrose stearate added to 50 g/L Treatment D, FIG. 13): 2 to 3 fold
Substance: sucrose stearate

Like-named read-outs stand apart in the source and are kept apart here.
